In paper PMC10108397 (ACS Medicinal Chemistry Letters, 2023):

How the values were obtained:
phospho-AKT (Ser129) = assay: Western blot analyses of pAKT and AKT in MDA-MB-231 cells; format: cell-based; conditions: 24 h exposure
[1] = test system: AMO-1 and L363 cell lines; assay: cells; conditions: Homo sapiens, 120 h, read-out: viability of the AMO-1 and L363 cells
MDA-MB-231 cells = assay: MDA-MB-231 cell viability assay; conditions: 48 h, up to 10 μM

## CCC(=O)Nc1cc(Nc2cc(NC3CC3)n3ncc(C#N)c3n2)ccc1C [SGC-CK2-1]
phospho-AKT (Ser129)
  AKT phosphorylation: dose-dependent inhibition of AKT phosphorylation
  total AKT expression: no impact on total AKT expression
[1]
  viability at 1 µM: 9 to 22%
MDA-MB-231 cells
  cytotoxicity: neither compound 2 nor SGC-CK2-1 exhibited significant cytotoxicity
